The record followed here is PubChem BioAssay (NCI).

Holding throughout (assay): NCI tumour cell line growth inhibition, 48 h
Experiment [1] concerns DLD-1 colon.
Experiment [2] deals with DMS 114 small cell lung.
Experiment [3] concerns HOP-18 NSCLC.
Experiment [4] concerns LXFL 529 NSCLC.
Experiment [5] has as its system M19-MEL melanoma.
Experiment [6] relates to SNB-78 CNS.

SMILES strings stand for the structures.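 Cells were grown in 96-well plates and exposed to each compound for 48 hours at five concentrations; endpoints were interpolated linearly between bracketing concentrations, or set to the highest concentration if not reached. GI50 marks 50% less growth. The concentration for full growth arrest is given as TGI.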 Where only a bound is given, the exact number is not on record here.

Take `Nc1ccccc1Nc1ccccc1C(=O)[O-].Nc1ccccc1Nc1ccccc1C(=O)[O-].[Cu+2]`: the GI50 in experiment [1] is more than 100 µM; in experiment [2], more than 100 µM; in experiment [3], more than 100 µM; in experiment [4], more than 100 µM; in experiment [5], 18.1 µM; in experiment [6], more than 100 µM. Moreover, the TGI in experiment [1] was more than 100 µM; in experiment [2] it was more than 100 µM; in experiment [3], more than 100 µM; in experiment [4], more than 100 µM; in experiment [5], 44.5 µM; in experiment [6], more than 100 µM.
